# Source: article PMC8621217, “New Uncharged 2-Thienostilbene Oximes as Reactivators of Organophosphate-Inhibited Cholinesterases” (2021)
# Sequences of proteins named here, by UniProt entry; tags and fusion partners are left off. Residues count along the entry.
# UniProt P22303, 32-614 limits assumed: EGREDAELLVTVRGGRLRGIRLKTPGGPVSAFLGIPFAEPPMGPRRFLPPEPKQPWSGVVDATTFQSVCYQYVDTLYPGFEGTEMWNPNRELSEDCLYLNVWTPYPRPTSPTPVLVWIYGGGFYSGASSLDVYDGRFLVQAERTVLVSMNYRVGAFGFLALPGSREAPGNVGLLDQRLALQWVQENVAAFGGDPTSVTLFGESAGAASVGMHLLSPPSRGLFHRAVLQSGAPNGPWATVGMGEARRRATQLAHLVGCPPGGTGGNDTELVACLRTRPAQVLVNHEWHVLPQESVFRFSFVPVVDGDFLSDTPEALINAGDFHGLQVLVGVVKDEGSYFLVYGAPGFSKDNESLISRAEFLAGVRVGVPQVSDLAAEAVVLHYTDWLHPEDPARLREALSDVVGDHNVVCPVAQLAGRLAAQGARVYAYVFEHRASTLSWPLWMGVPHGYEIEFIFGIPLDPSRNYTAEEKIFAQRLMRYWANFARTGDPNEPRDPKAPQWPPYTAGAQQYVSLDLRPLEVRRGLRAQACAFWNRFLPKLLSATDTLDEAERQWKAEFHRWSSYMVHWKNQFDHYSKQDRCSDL
# UniProt P06276, 29-602 limits assumed: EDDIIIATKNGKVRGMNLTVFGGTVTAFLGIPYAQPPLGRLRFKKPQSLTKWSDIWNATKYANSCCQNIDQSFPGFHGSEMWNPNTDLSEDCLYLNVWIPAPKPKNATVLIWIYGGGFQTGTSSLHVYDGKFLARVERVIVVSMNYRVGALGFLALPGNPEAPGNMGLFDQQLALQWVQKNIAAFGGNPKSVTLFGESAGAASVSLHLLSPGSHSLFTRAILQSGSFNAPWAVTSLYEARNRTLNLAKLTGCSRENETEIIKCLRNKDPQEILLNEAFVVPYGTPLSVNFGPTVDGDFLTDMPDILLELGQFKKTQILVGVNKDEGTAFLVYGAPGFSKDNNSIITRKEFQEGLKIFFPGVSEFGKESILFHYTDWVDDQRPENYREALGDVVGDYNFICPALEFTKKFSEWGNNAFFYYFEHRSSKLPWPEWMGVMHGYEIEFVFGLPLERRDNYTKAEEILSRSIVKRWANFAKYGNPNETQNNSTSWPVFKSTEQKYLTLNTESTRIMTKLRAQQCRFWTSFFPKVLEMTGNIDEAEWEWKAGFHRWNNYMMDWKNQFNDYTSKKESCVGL
# How the values were obtained:
# [1] = target: human acetylcholinesterase (AChE) (Homo sapiens, UniProt P22303)
# [2] = target: human butyrylcholinesterase (BChE) (Homo sapiens, UniProt P06276)
# [3] = target: cyclosarin-inhibited human BChE (Homo sapiens, UniProt P06276); assay: Reactivation of cyclosarin-inhibited BChE; conditions: 0.1 mM oxime; for Observed reactivation rate (kobs), ranking: cyclosarin-inhibited BChE; for Reactivation of cyclosarin-inhibited BChE: in two hours of reactivation
Compound,Ki [1],Ki [2],Reactivator quality (cyclosarin-inhibited BChE) [3],"Observed reactivation rate (kobs), ranking [3]",Reactivation of cyclosarin-inhibited BChE [3]
"cys,syn-5-(4-dimethylaminostyryl)thiophene-2-carbaldehyde oxime",39 µM,89 µM,poor reactivator,,
"trans,anti-5-(4-chlorostyryl)thiophene-2-carbaldehyde oxime",76 µM,482 µM,,fastest reactivation,up to 70%
"trans,syn-5-(4-methylstyryl)thiophene-2-carbaldehyde oxime",46 µM,355 µM,,,
Cc1ccc(/C=C/c2ccc(/C=N\O)s2)cc1,41 µM,322 µM,,,
N#Cc1ccc(/C=C/c2ccc(/C=N\O)s2)cc1,158 µM,44 µM,,,
"trans,syn-5-(4-methoxystyryl)thiophene-2-carbaldehyde oxime",67 µM,271 µM,,,
O/N=C/c1ccc(/C=C/c2ccc(Cl)cc2)s1,52 µM,573 µM,,,
COc1ccc(/C=C/c2ccc(/C=N\O)s2)cc1,54 µM,172 µM,,fastest reactivation,up to 70%
